# Measured affinities in a library of Ab-14 light chain variants

From the AlphaSeq antibody data of Engelhart et al. 2022 (doi:10.1038/s41597-022-01779-4), copy in the FLAb collection.

Binding partner: SARS-CoV-2 spike HR2 peptide, sequence PDVDLGDISGINAS.

The variants keep the heavy chain, the linker and the frameworks of Ab-14 (scFv order VH, a 15-residue (Gly4Ser)3 linker, VL).
VH: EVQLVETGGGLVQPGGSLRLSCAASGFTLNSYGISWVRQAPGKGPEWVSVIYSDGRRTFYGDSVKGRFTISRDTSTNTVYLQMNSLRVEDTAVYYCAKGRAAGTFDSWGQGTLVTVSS
VL: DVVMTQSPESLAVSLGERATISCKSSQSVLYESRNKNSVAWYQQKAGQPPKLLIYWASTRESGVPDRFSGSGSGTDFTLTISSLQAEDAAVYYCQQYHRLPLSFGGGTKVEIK

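The starting antibody came from a phage panning campaign against this peptide. In library AAYL50, one, two or three CDR residues were substituted; doubles and triples were drawn at random. In AlphaSeq, yeast of one mating type display the scFv and yeast of the other type display the target. Pairs that bind mate more often; barcode pairs of the diploids are counted by sequencing. Scores were corrected for input abundance and mapped to Kd with protein pairs of known affinity run in the same pool. There are three technical replicates.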

Positions count from residue 1 of the parent VL; Y31C puts C in place of Y. Numbers give log10(Kd / nM), so 0 is 1 nM and 3 is 1 µM. Smaller is tighter. Replicates are averaged; those with no signal do not enter the mean. Where no diploid with the target was found in any replicate, the entry reads "nd": below detection, most likely a poor binder, though not proof of it. For reference, the parent read 0.65 as the reference entry and 1.68 as a member of this library. Three control strains display no target. For library AAYL50, 18% of the pairings with them gave a signal, with a median of 4.19 and one signal in twenty below 2.99, so weak values seen in few replicates may be background. Also given: how often the same scFv was detected with the empty control strains.

For Y31C+R60M+S103I, the assay gave 3.29 (1 of 3 replicates; controls 1 of 9).
For S26Q+Y31N+T59E, the assay gave 4.51 (3 of 3 replicates; controls 1 of 9).
For S25C+Q96H+L102I, the assay gave 1.30 (3 of 3 replicates; controls 1 of 9).
For H98R+S103E, the assay gave nd (0 of 3 replicates; controls 0 of 9).
For S33D+R34H+S103E, the assay gave nd (0 of 3 replicates; controls 0 of 9).
For S26T+Y31P+Q95G, the assay gave 3.05 (2 of 3 replicates; controls 2 of 9).
For S28A+Y31Q+L100D, the assay gave 1.83 (3 of 3 replicates; controls 1 of 9).
For S25Q+Q27F+P101M, the assay gave 1.37 (3 of 3 replicates; controls 1 of 9).
For K24E+R34V+Q95R, the assay gave nd (0 of 3 replicates; controls 0 of 9).
For Q27T+S28P+N35G, the assay gave 0.91 (3 of 3 replicates; controls 4 of 9).
For N37A+H98Q+L100I, the assay gave 2.37 (3 of 3 replicates; controls 0 of 9).
For H98F+P101C+L102K, the assay gave nd (0 of 3 replicates; controls 2 of 9).
For Y31E+S38K+L102N, the assay gave nd (0 of 3 replicates; controls 0 of 9).
For S33M+V39N+R60T, the assay gave nd (0 of 3 replicates; controls 0 of 9).
For Y31T+S33Q+S58A, the assay gave 4.61 (1 of 3 replicates; controls 0 of 9).
For S28E+W56I, the assay gave 5.05 (1 of 3 replicates; controls 3 of 9).
For K24V+N37W, the assay gave 1.53 (3 of 3 replicates; controls 2 of 9).
For S28E+R34Y+S38V, the assay gave 4.98 (2 of 3 replicates; controls 9 of 9).
For W56V+Y97F+L100V, the assay gave 5.36 (1 of 3 replicates; controls 4 of 9).
For E32D+S33N, the assay gave 0.48 (3 of 3 replicates; controls 2 of 9).
For S28R+Q95W+P101G, the assay gave 3.76 (3 of 3 replicates; controls 9 of 9).
For T59S+Q96L, the assay gave nd (0 of 3 replicates; controls 1 of 9).
For A40C+R60P+P101C, the assay gave nd (0 of 3 replicates; controls 3 of 9).
For Y31F+K36M+W56K, the assay gave 1.25 (3 of 3 replicates; controls 1 of 9).
For K24M+A40F+S62E, the assay gave 4.64 (1 of 3 replicates; controls 3 of 9).
For S26K+V39A+W56R, the assay gave 2.73 (3 of 3 replicates; controls 1 of 9).
For N37Y+S58F+Q95A, the assay gave 2.68 (3 of 3 replicates; controls 3 of 9).
For V29M+V39P+Q95N, the assay gave 3.38 (1 of 3 replicates; controls 1 of 9).
For K24V+E32I+S103C, the assay gave nd (0 of 3 replicates; controls 3 of 9).
For L30V+N35P+T59E, the assay gave nd (0 of 3 replicates; controls 0 of 9).
For S26F+A57T+S62W, the assay gave nd (0 of 3 replicates; controls 0 of 9).
For L30Y+S33E+L102Q, the assay gave 3.45 (1 of 3 replicates; controls 1 of 9).

Picked from the list: the 5 lowest averages where every replicate gave a value.

changes,"log10 Kd (nM), mean",seen in,control signals
E32D+S33N,0.48,3/3,2/9
Q27T+S28P+N35G,0.91,3/3,4/9
Y31F+K36M+W56K,1.25,3/3,1/9
S25C+Q96H+L102I,1.30,3/3,1/9
S25Q+Q27F+P101M,1.37,3/3,1/9